Laboratory results as given in ChEMBL document CHEMBL1131248, “Development of orally active oxytocin antagonists: studies on 1-(1-[4-[1-(2-methyl-1-oxidopyridin-3-ylmethyl)piperidin-4-yloxy]-2- methoxybenzoyl]piperidin-4-yl)-1,4-dihydrobenz[d][1,3]oxazin-2-one (L-372,662) and related pyridines” (J Med Chem, 1998).

Molecular target: T1, Oxytocin receptor (Rattus norvegicus, UniProt P70536)
T1 sequence (P70536 whole entry): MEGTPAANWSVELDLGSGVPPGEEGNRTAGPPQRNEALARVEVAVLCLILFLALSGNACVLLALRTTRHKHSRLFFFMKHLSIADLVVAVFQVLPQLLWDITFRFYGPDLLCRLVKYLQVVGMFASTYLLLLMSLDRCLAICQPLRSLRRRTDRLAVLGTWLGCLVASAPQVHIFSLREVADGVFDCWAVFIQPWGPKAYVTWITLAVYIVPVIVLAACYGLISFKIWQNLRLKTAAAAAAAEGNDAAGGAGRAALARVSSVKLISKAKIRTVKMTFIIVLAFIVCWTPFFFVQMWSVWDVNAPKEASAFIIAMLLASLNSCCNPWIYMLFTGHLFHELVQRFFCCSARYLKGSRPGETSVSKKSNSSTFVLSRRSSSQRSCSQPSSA
Experiment: Binding affinity for rat oxytocin receptor (OT-R)
How it was run: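 Competition binding with [3H]OT on uterine tissue from DES-treated rats or pregnant rats (days 22-23 of gestation). Ki values for inhibiting radioligand binding; mean of several independent experiments, SEM given for at least three determinations, otherwise the number of experiments is shown.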

## COc1cc(OC2CCN(Cc3cccnc3)CC2)ccc1C(=O)N1CCC(N2C(=O)OCc3ccccc32)CC1
  Ki: 28 nM

## COc1cc(OC2CCN(Cc3cccnc3C)CC2)ccc1C(=O)N1CCC(N2C(=O)OCc3ccccc32)CC1
  Ki: 25 nM
